E-sel inducer – E-selectin induction in HUVECs, primary screen, imaging, HUVEC, immunofluorescence imaging, single point; activation, % at 7.58 µM; AID 686992, 2013; 260,000 tested, 0.37% active; P16581; normalized: neutral wells 0, TNF-alpha wells 100;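 active = mean E-selectin-positive cell signal at least 10% of the positive control, reached in at least 60% of replicates, without over 20% cell loss; inconclusive = no rule given, readout overlaps actives, possibly toxicity-flagged; inactive = the rest, including those meeting only one limit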
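System: HUVEC / Compound: single concentration / Signal: immunofluorescence imaging / Read-out: percent E-selectin-positive cells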
XiGFP reactiv – activators of inactive X chromosome reactivation, primary screen, imaging, XiGFP fibroblasts, GFP high-content imaging, set 2 | XiGFP mouse fibroblasts, % GFP-positive cells imaging, 3 d; cells co-treated with 5-aza-dC sensitizer; scaled so ellipticine positive control = 100% | activation, % at 7.58 µM | 360,000 tested, 0.055% active | AID 743238, 2013;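 active = mean normalized replicate activation at least 10% and every replicate at or above 10%; inconclusive = only one of the two criteria met; inactive = mean below 10% and not all replicates reach 10%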
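Material: SV40-immortalized XiGFP fibroblast cells, line 68-5-11 | Buffer or medium: DMEM containing 5-aza-dC | Dosing: One concentration, pinned | Times: 3 d treatment, 15 min room-temperature fixation | Controls: Ellipticine 6 µM positive control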
RAD52 inh – RAD52 DNA annealing inhibitors, primary screen, biochemical, FRET, single point, set 2. 360,000 tested, 0.46% active. inhibition, % at 18.7 µM. recombinant RAD52 DNA annealing, FRET fluorescence. DNA repair protein RAD52 homolog (Homo sapiens), P43351;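 active = every replicate showing at least 50% inhibition; inconclusive = mean inhibition at least 50% but not in every replicate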
RAD54 branch – inhibitors of human RAD54 branch migration, primary screen, biochemical, fluorescence, single point. DNA repair and recombination protein RAD54-like (Homo sapiens), Q92698. 360,000 tested, 0.14% active. inhibition, % at 10.4 µM. RAD54 Holliday junction branch migration, FAM/BHQ fluorescence. AID 602329, 2012;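 active = mean normalized replicate activity at least 40 and at least half of replicates scoring 40 or more; inconclusive = only one of the two criteria met; inactive = mean below 40 and under half of replicates reaching 40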;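 also: inhibitors cause a drop in the FAM fluorescence signal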
UUG fidelity – alters start codon recognition fidelity in yeast; AID 602363; activity score, % at 18.7 µM; 350,000 tested, 0.13% active; S. cerevisiae UUG-firefly luciferase reporter, luminescence/redox ratio;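 active means replicate mean at a twofold rise or more, about +100% in these data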;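 further: firefly luciferase made from a UUG start codon reports start codon fidelity; reporter light over untreated wells divided by growth signal over untreated wells; some hits fall short of that in this replicate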
DNA binding – DNA binding of candidate compounds, dose response, artefact control for RAD54 inhibitor project, biochemical, fluorescence polarization, cherry-pick | shares compounds with RAD54 branch | Acridine orange-DNA displacement, 20 min | AC50, µM (doses to about 35 µM) | AID 651673, 2012 | 460 tested, 8% active;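 active = signal drop giving an AC50 within twice the top valid tested concentration of each sample, actives reach about 35 µM in these data; inactive = activity opposite to expected, plus the rest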;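 also: polarization loss reports compound binding to salmon sperm DNA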
A number is an active result; . = inactive; ? = inconclusive; / = not tested or not shown. Hits are enriched below; roughly 0.73% of the tested compounds scored in any of these assays.

Protein sequences, listed by entry. Tags and fused reporters are not part of them.
DNA repair and recombination protein RAD54-like (Homo sapiens), Q92698, UniProt Q92698, whole entry, looked up: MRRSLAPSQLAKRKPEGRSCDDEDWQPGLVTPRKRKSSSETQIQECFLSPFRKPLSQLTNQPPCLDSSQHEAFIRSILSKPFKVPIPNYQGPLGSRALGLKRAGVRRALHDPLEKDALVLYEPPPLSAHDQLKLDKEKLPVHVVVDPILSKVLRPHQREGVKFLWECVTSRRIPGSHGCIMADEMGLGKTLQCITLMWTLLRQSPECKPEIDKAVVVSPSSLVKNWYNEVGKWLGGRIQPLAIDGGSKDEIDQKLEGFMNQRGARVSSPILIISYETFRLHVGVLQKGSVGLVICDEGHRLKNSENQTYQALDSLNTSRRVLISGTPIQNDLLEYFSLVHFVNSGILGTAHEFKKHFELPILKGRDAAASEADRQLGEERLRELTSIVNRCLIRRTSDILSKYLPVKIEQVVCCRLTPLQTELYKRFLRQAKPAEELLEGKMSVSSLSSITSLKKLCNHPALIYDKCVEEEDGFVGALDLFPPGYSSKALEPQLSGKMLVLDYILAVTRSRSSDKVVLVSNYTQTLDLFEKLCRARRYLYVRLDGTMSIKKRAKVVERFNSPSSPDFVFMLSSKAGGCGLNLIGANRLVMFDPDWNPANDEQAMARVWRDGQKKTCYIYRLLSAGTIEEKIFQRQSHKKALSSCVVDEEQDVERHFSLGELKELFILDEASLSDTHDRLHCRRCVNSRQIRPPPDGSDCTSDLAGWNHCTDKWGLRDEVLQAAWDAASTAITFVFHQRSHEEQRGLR

SMILES	E-sel inducer	XiGFP reactiv	RAD52 inh	RAD54 branch	UUG fidelity	DNA binding
Cc1ccc(CSc2nnc(-c3ccc(S(=O)(=O)N4CCCC4)cc3)o2)cc1	/	/	/	.	.	/
O=S(=O)(c1ccc(-c2nnc(SCc3ccccc3)o2)cc1)N1CCCC1	/	/	/	?	.	.
COCC(=O)Nc1ccc2c(c1)C(=O)N(C)C[C@@H](OC)[C@@H](C)CN(CCC(F)(F)F)[C@@H](C)CO2	.	.	.	.	.	/
O=C1C(c2ccc(F)cc2)N(C2CCCCC2)C(=O)CN1C1CCCC1 (stereo unspecified)	/	/	/	?	.	.
Cc1ccc(C2C(=O)N(C3CCC(C)CC3)CC(=O)N2C2CCCC2)cc1 (stereo unspecified)	/	/	/	.	.	/
C[C@@H]1CN([C@@H](C)CO)C(=O)c2cccc(NC(=O)c3cnccn3)c2O[C@@H]1CN(C)C(=O)NC1CCCCC1	.	.	.	.	.	/
Cc1ccc(-c2csc3nc4c5ccccc5c(NCCCN(C)C)nn4c(=O)c23)cc1	/	.	97	53	.	.
Cc1ccc(-c2csc3nc(C)n(N)c(=O)c23)cc1	.	.	.	.	.	/
Oc1ccc(CCNc2c3ccccc3nc3ccccc23)cc1O	.	.	106	116	.	25µM
Cc1ccc(O)c(Nc2c3ccccc3nc3ccccc23)c1	.	.	.	.	.	/
O=C(C[C@@H]1CC[C@H]2[C@@H](COC[C@H](O)CN2Cc2cccc(C(F)(F)F)c2)O1)NCc1ccncc1	.	.	.	.	.	/
OC1CCCN(Cc2c3ccccc3cc3ccccc23)C1 (stereo unspecified)	/	/	/	93	.	.
OC1CCCN(Cc2cccc3ccccc23)C1 (stereo unspecified)	/	/	/	.	.	/
COCC(=O)Nc1ccc2c(c1)C(=O)N(C)C[C@@H](OC)[C@@H](C)CN(C(=O)Cc1cccnc1)[C@H](C)CO2	.	.	.	.	/	/
CCCn1c(=N)c(C(=O)NC2CCCC2)cc2c(=O)n3cccc(C)c3nc21	/	/	/	.	.	/
CCn1c(=N)c(C(=O)NC)cc2c(=O)n3cccc(C)c3nc21	/	/	/	?	.	.
c1ccc(Nc2ccccc2Nc2ccccn2)nc1	/	/	.	/	/	/
Oc1cccc2ccc(Nc3ccccn3)nc12	/	/	/	94	.	.
CCNCCNC(=O)c1c(O)c2cccc3c2n(c1=O)CCC3	/	/	/	?	.	.
Oc1ccccc1-c1nc(NCCN2CCOCC2)c2ccccc2n1	/	/	/	?	.	.
Cc1cccc(-c2nc(NCCN(C)C)c3ccccc3n2)c1	.	.	.	.	.	/
CN(C)CCCNc1nc(-c2ccccc2)nc2ccccc12	.	.	.	67	.	.
COc1cccc(-c2nc(NCCN3CCOCC3)c3ccccc3n2)c1O	/	/	/	109	.	.
COc1cccc(-c2nc(NC(C)(C)C)c3ccccc3n2)c1O	/	/	/	.	.	/
Clc1ccc(-c2nc(NCCCN3CCOCC3)c3ccccc3n2)cc1	.	.	.	.	.	/
SMILES	E-sel inducer	XiGFP reactiv	RAD52 inh	RAD54 branch	UUG fidelity	DNA binding
Cc1ccc(-c2nc(NCCN3CCOCC3)c3ccccc3n2)cc1	/	/	/	?	.	.
CCCC#Cc1ccc([C@H]2[C@@H](CO)N(C(C)=O)[C@@H]2CNC(=O)C2CCCC2)cc1	.	.	.	/	/	/
C[C@H](CO)N1C[C@H](C)[C@@H](CN(C)Cc2cccc(F)c2)Oc2ncc(Br)cc2C1=O	.	.	.	.	.	/
COc1ccc(OC)c2c(C)cc(NCCN3CCOCC3)nc12	/	/	/	54	.	.
CCOC(=O)c1cnc2c(C)cccc2c1NCCCN1CCOCC1	/	.	.	95	.	.
CCOC(=O)c1cnc2c(CC)cccc2c1NCCN1CCOCC1	/	.	.	.	.	/
Cc1nnc2c(N3CCN(CCO)CC3)nc3ccccc3n12	/	.	.	?	.	.
CCCCN(CC)CCNC(=O)c1cc2c(=O)n(C)c3ccccc3c2n1C	.	.	.	56	.	.
CCN(CC)CCNC(=O)c1cc2c(=O)n(C)c3ccccc3c2n1C	.	.	.	61	.	.
COCCNC(=O)c1cc2c(=O)n(C)c3ccccc3c2n1C	.	.	.	.	.	/
CN(C)CCNC(=O)c1cc2c(=O)n(C)c3ccccc3c2n1C	/	.	.	78	.	.
COCCCNC(=O)c1cc2c(=O)n(C)c3ccccc3c2n1C	/	.	.	.	.	/
CCCN(CCC)CCCNC(=O)c1cc2c(=O)n(C)c3ccccc3c2n1C	.	.	.	?	.	.
CO[C@@H]1CN(C)C(=O)c2cc(NC(=O)C3CC3)ccc2OC[C@@H](C)N(C(C)=O)C[C@@H]1C	.	.	.	.	.	/
C[C@H](CO)N1C[C@H](C)[C@@H](CN(C)S(=O)(=O)c2cn(C)cn2)OCCCC[C@H](C)Oc2ccc(NC(=O)Nc3ccc4c(c3)OCO4)cc2C1=O	.	.	.	.	.	/
CCN(CC)CCCNC(=O)c1cc2c(=O)n(C)c3ccccc3c2n1C	.	.	.	72	.	.
COCC(=O)Nc1ccc2c(c1)[C@@H]1C[C@H](CC(=O)NCC3CC3)O[C@H](CO)[C@@H]1O2	.	.	.	.	.	/
COc1cc2nc(N3CCNCC3)nc(N)c2cc1OC	/	/	/	64	.	.
COc1cc2c(C#N)c(N3CCN(C)CC3)nc(N)c2c(N)n1	/	/	/	71	.	.
C=CCn1c(C)nnc1SCC(=O)N1c2ccccc2NC(=O)C1(C)C	.	.	.	.	.	/
C=CCN1C(=O)C(C)(C)Nc2ccccc21	/	/	/	?	.	.
COc1cccc(NC(=O)N(C)C[C@@H]2Oc3cc(-c4ccccc4F)ccc3S(=O)(=O)N([C@H](C)CO)C[C@@H]2C)c1	/	.	.	.	.	/
COc1ccccc1NC(=O)CNC(=O)c1ccccc1	/	/	/	52	.	.
